As a reminder, the IC50 is the concentration needed to halve the response being measured.

Sequences of proteins named here, by UniProt entry; tags and fusion partners are left off. Residues count along the entry.
UniProt Q14416, 19-872: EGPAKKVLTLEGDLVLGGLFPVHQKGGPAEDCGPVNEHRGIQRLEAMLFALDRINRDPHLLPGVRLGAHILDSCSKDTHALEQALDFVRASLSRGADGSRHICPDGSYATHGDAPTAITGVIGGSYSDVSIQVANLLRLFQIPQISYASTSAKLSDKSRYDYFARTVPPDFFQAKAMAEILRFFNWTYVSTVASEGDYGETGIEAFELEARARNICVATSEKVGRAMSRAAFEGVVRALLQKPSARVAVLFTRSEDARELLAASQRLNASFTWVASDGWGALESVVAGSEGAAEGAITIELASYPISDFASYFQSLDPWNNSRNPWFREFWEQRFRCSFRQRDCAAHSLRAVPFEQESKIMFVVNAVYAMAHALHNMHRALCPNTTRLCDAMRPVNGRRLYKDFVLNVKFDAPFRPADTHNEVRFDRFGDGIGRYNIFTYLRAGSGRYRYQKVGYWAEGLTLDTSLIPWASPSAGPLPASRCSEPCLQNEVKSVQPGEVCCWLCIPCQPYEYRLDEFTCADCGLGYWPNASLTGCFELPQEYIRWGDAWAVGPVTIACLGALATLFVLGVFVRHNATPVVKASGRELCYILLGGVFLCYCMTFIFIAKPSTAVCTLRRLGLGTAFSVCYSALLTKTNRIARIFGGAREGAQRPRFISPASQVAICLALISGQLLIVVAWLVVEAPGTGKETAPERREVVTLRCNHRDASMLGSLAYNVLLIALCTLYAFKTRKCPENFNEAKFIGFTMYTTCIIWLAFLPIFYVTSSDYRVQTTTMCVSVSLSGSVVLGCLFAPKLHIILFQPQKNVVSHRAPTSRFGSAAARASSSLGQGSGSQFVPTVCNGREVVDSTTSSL

The assay concerns the target human mGluR2 (Homo sapiens (Human), UniProt Q14416). Description: FLIPR Ca2+ mobilization antagonist assay in CHO dhfr- cells expressing recombinant human mGluR2 and Gα16. In kind it is cell-based. Particulars: antagonist response after addition of 2,500 nM glutamate, Fluo-4 AM, FLIPR384. On the technique in general: A change in cytosolic calcium serves as a functional read-out for many receptors and channels.

In the case of `Cn1cc(-c2cc(C(N)=O)nc3cc(Cc4cnc(F)nc4)ccc23)cn1` [Example 6-16, 7-[(2-fluoropyrimidin-5-yl)methyl]-4-(1-methyl-1H-pyrazol-4-yl)quinoline-2-carboxamide], the IC50 turned out to be 76 nM. For `COc1ccc(Cc2ccc3c(-c4cnn(C)c4)cc(C(N)=O)nc3c2F)cn1` [Example 7-38, 8-fluoro-7-[(6-methoxypyridin-3-yl)methyl]-4-(1-methyl-1H-pyrazol-4-yl)quinoline-2-carboxamide], the IC50 was 39 nM. Regarding `N#Cc1cc(-c2ccc(F)cc2)c2ccc(CN3C(=O)CCC3=O)cc2n1` [Example 2-9, 7-[(2,5-dioxopyrrolidin-1-yl)methyl]-4-(4-fluorophenyl)quinoline-2-carbonitrile], the IC50 is 416 nM.

With `NC(=O)c1cc(-c2ccc(F)cc2)c2ccc(Cn3c(S(=O)(=O)O)nc4ccccc43)cc2n1` [Example 3-35, 1-{[2-carbamoyl-4-(4-fluorophenyl)quin-olin-7-yl]methyl}-1H-benzimidazole-2-sulfonic acid], the IC50 amounted to 27 nM. For the compound `COCCN(C)Cc1ccc2c(-c3ccc(F)cc3)cc(C(N)=O)nc2c1` [Example 4-30, 4-(4-fluorophenyl)-7-{[(2-methoxyethyl)(meth-yl)amino]methyl} quinoline-2-carboxamide], the IC50 came out at 241 nM. For the compound `Cn1cc(-c2cc(C(N)=O)nc3c(F)c(CN4CCCC(C(F)(F)F)C4)ccc23)cn1` (stereo not shown) [Example 7-36, 8-fluoro-4-(1-methyl-1H-pyrazol-4-yl)-7-{[3-(trifluoromethyl)piperidin-1-yl]methyl}quinoline-2-carboxamide], the IC50 was found to be 13 nM. `Cc1ccc(CC(O)c2ccc3c(-c4ccc(F)cc4)cc(C(N)=O)nc3c2)cn1` (stereo not shown) [Example 8-22, 4-(4-fluorophenyl)-7-[1-hydroxy-2-(6-methylpyridin-3-yl)ethyl]quinoline-2-carboxamide]: the IC50 was 14 nM. On to `NC(=O)c1cc(-c2ccc(F)cc2)c2ccc(CN3CCn4cc(C(F)(F)F)nc4C3)cc2n1` [Example 4-49, 4-(4-fluorophenyl)-7-{[2-(trifluoromethyl)-5,6-dihydroimidazo[1,2-a]pyrazin-7(8H)-yl]methyl}quinoline-2-carboxamide], for which the IC50 was 38 nM. Regarding `CCC(O)(c1cn(Cc2ccc3c(-c4ccc(OC)cc4F)cc(C(N)=O)nc3c2)cn1)C(F)(F)F` (stereo not shown) [Example 3-50, 4-(2-fluoro-4-methoxyphenyl)-7-({4-[1-hydroxy-1-(trifluoromethyl)propyl]-1H-imidazol-1-yl}methyl)quinoline-2-carboxamide], the IC50 was 15 nM. Take `CC1CN(Cc2ccc3c(-c4ccc(F)cc4)cc(C(N)=O)nc3c2)CC(C(F)(F)F)N1` (stereo not shown) [Example 4-115, 4-(4-fluorophenyl)-7-{[3-methyl-5-(trifluoromethyl)piperazin-1-yl]methyl}quinoline-2-carboxamide]: the IC50 turned out to be 34 nM. In the case of `NC(=O)c1cc(-c2ccc(F)cc2)c2ccc(CN3CCNC(=O)C3)cc2n1` [Example 4-28, 4-(4-fluorophenyl)-7-[(3-oxopiperazin-1-yl)methyl]quinoline-2-carboxamide] it was 82 nM; in that of `NC(=O)c1cc(-c2cnn(CC(F)(F)F)c2)c2ccc(CN3CCOC(C(F)(F)F)C3)cc2n1` (stereo not shown) [Example 4-79, 4-[1-(2,2,2-trifluoroethyl)-1H-pyrazol-4-yl]-7-{[2-(trifluoromethyl)morpholin-4-yl]methyl}quinoline-2-carboxamide], 159 nM. For the compound `CON(C)Cc1ccc2c(-c3ccc(F)cc3)cc(C(N)=O)nc2c1` [Example 4-29, 4-(4-fluorophenyl)-7-{[methoxy(methyl)amino]methyl}quin-oline-2-carboxamide], the half-maximal inhibitory concentration (IC50) came out at 82 nM. In the case of `Cn1cc(-c2cc(C(N)=O)nc3cc(CN4CCC5(CC4)CC5)ccc23)cn1` [Example 4-130, 7-(6-azaspiro[2.5]oct-6-ylmethyl)-4-(1-methyl-1H-pyrazol-4-yl)quinoline-2-carboxamide] it was 245 nM; in that of `NC(=O)c1cc(-c2ccc(F)cc2)c2ccc(CN3CCOC3=O)cc2n1` [Example 2-30, 4-(4-fluorophenyl)-7-[(2-oxo-1,3-oxazolidin-3-yl)methyl]quinoline-2-carboxamide], 123 nM; in that of `N#C[C@@H]1CCCN1Cc1ccc2c(-c3ccc(F)cc3)cc(C(N)=O)nc2c1` [Example 4-32, 7-{[(2S)-2-cyanopyrrolidin-1-yl]methyl}-4-(4-fluorophenyl)quino-line-2-carboxamide], 478 nM.

For the origin of these results see patent US9278960B2, “Quinoline carboxamide and quinoline carbonitrile derivatives as mGluR2-negative allosteric modulators, compositions, and their use” (Merck Sharp & Dohme Corp., priority 2011, dated 2016).
